Values quoted from earlier work in PMC6832932, “Design and Selection of Novel C1s Inhibitors by In Silico and In Vitro Approaches” (Molecules, 2019).

Molecular target: Factor Xa
Parameters: method as in PMID 18624979
Conditions: ref [50]; cited from earlier work

In the case of CN1CCc2nc(C(=O)N[C@@H]3C[C@@H](C(=O)N(C)C)CC[C@@H]3NC(=O)C(=O)Nc3ccc(Cl)cn3)sc2C1 [Edoxaban], the Ki is listed as 0.561 nM.
